According to patent publication US10300036B2, “Compositions and methods for treating and preventing lung injury” (ARIZONA BOARD OF REGENTS on behalf of THE UNIVERSITY OF …, priority 2015, dated 2019):

Legend:
[1] = test system: KEAP1-mediated ubiquitination of NRF2; conditions: for ubiquitination level of NRF2: H1299 cotransfected with NRF2 and HA-Ub, bixin 40 μM or SF 5 μM with MG132, 4 h, vs untreated control
NRF2 signaling pathway = assay: Pulmonary NRF2 signaling pathway activation after IP injection (IHC, immunoblot, RT-PCR of lung tissue); conditions: Nrf2+/+ mice

SMILES	ubiquitination level of NRF2 [1]	NRF2 ubiquitination, endogenous KEAP1 or exogenous KEAP1-WT ([1]; H1299, 40 μM with MG132, 4 h)	NRF2 ubiquitination, KEAP1-C151S ([1]; H1299, KEAP1 siRNA plus KEAP1-C151S, 40 μM with MG132, 4 h)	pulmonary protein levels of NRF2 and its target genes (Gclm and Hmox1), immunoblot (NRF2 signaling pathway; IP 200 mg/kg, 72 h, pilot study)	NRF2, HO-1 and GCLM protein levels in lungs (IHC) (NRF2 signaling pathway; IP 200 mg/kg, bixin alone)	NRF2, HO-1 and GCLM in lung total protein (immunoblot) (NRF2 signaling pathway; bixin alone or combined with ventilation)
C[S+]([O-])CCCCN=C=S (stereo not shown) [SF, sulforaphane, reference compound]	decreased NRF2 ubquitination	–	–	–	–	–
COC(=O)/C=C/C(C)=C\C=C\C(C)=C\C=C\C=C(C)\C=C\C=C(C)\C=C\C(=O)O [bixin, Bixin]	markedly reduced	prevented the ubiquitination	had no effect	effective in upregulating	able to increase NRF2 protein levels	can induce NRF2, HO-1 and GCLM
